These are literature values, as cited in US4902505A, “Chimeric peptides for neuropeptide delivery through the blood-brain barrier” (Alkermes, priority 1988, dated 1990).

This data set deals with blood-brain barrier. The following applies: general statement, no test described; cited from earlier work.

Consider insulin, for which the “transport through the blood-brain barrier” value is reported as “is transported”.
